Data reported in BindingDB's records for US20260007681 (2026).

Target: DNA damage-binding protein 1/Protein cereblon (Homo sapiens, UniProt Q16531+Q96SW2)
Test: In Vitro Assay: IC50 Measurements for Binding to CRBN/DDB1

Compound `COc1cc(N2CCC3(CCN(C(=O)CN4Cc5cnc(C(=O)N[C@H]6CCC(=O)NC6=O)cc5C4)CC3)CC2)ccc1[C@@H]1c2[nH]c3ccccc3c2CCN1CC(C)F` (stereo partly specified) has an IC50 of 2.75 µM.
